For one data set, the target named is T1, human GLP-1 receptor (Homo sapiens, UniProt P43220).
T1 construct: expressed in transfected cells; host or cells: HEK-293
In words: cAMP response (HTRF) of HEK-293 cells stably expressing human GLP-1 receptor. The class given is cell-based. The settings on record: read-out: EC50 hGLP-1R. On the technique in general: TR-FRET usually uses a lanthanide donor and a delayed reading to cut background.

The chains behind the UniProt entries cited, without tags or fusion partners. Residues count along the entry.
UniProt P43220, 24-463: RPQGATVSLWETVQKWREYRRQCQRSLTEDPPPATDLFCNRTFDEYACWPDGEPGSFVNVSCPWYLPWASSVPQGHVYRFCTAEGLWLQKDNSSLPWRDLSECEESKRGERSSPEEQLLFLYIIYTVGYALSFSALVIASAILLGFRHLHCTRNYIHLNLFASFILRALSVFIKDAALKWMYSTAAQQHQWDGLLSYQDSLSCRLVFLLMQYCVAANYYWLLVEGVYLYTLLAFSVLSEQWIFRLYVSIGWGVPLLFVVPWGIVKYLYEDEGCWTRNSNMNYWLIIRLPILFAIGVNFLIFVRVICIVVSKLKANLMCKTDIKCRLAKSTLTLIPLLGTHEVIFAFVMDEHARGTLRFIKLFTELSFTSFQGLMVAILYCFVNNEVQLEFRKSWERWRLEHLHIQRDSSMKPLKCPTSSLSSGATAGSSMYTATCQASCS
UniProt P47871, 26-477: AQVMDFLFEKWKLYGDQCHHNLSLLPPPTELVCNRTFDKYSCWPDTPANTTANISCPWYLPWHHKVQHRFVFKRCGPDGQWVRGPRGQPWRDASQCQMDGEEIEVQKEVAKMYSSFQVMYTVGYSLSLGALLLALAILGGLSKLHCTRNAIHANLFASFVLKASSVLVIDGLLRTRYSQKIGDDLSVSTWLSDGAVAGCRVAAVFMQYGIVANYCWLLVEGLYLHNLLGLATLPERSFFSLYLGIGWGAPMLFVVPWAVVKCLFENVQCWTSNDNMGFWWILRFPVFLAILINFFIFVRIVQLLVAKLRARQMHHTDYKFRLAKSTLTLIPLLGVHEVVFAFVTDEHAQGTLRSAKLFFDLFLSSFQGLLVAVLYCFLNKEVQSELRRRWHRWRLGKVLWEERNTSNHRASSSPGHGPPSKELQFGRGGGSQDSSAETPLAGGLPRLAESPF

Another data set has as its target T2, human glucagon receptor (Homo sapiens, UniProt P47871).
T2 construct: expressed in transfected cells; host or cells: HEK-293
In words: cAMP response (HTRF) of HEK-293 cells stably expressing human glucagon receptor. The format is cell-based. Conditions: read-out: EC50 hGlucagon-R.

Another data set in a line: physchem. The class given is physicochemical.
Another data set is described as follows: in vivo. The settings on record: mouse, sc, 1 mg/kg. Details: species or system mice. As to the method:
Mice were dosed 1 mg/kg subcutaneously (s.c.). The mice were sacrificed and blood samples were collected after 0.25, 1, 2, 4, 8, 16 and 24 hours post application. Plasma samples were analysed after protein precipitation via liquid chromatography mass spectrometry (LC/MS). PK parameters and half-life were calculated using WinonLin Version 5.2.1 (non-compartment model).
Pharmacokinetic profiles were determined as described in Methods.

[1] abbreviates: Table 8, comparison testing of position 14.

SMILES strings stand for the structures. Where two headings read alike, the source gives them in different places. Bounds are passed on as bounds.

What is called EC50 is the concentration at which the effect is half-maximal. The solubility is how much of the substance goes into solution per volume. The low end stands for little dissolved substance, the high end for much dissolved substance. For orientation: Cmax means the peak of the concentration-time curve. For orientation: half-life means the time needed for the level to fall by half in the phase considered. A higher half-life goes with slow decline.

Take `CCCCCCCCCCCCCCCC(=O)N[C@@H](CCC(=O)NCCCC[C@H](NC(=O)[C@H](CCC(N)=O)NC(=O)[C@H](CCCCN)NC(=O)[C@H](CO)NC(=O)[C@H](CC(C)C)NC(=O)[C@H](CC(=O)O)NC(=O)[C@H](CO)NC(=O)[C@@H](NC(=O)[C@H](Cc1ccccc1)NC(=O)[C@@H](NC(=O)CNC(=O)[C@H](CCC(N)=O)NC(=O)[C@@H](CO)NC(=O)[C@@H](N)Cc1c[nH]cn1)[C@@H](C)O)[C@@H](C)O)C(=O)N[C@@H](CCC(=O)O)C(=O)N[C@@H](CO)C(=O)N[C@@H](CCCCN)C(=O)N[C@@H](C)C(=O)N[C@@H](C)C(=O)N[C@@H](CCC(N)=O)C(=O)N[C@@H](CC(=O)O)C(=O)N[C@@H](Cc1ccccc1)C(=O)N[C@H](C(=O)N[C@@H](CCC(=O)O)C(=O)N[C@@H](Cc1c[nH]c2ccccc12)C(=O)N[C@@H](CC(C)C)C(=O)N[C@@H](CCCCN)C(=O)N[C@@H](C)C(=O)NCC(=O)NCC(=O)N1CCC[C@H]1C(=O)N[C@@H](CO)C(=O)N[C@@H](CO)C(=O)NCC(=O)N[C@@H](C)C(=O)N1CCC[C@H]1C(=O)N1CCC[C@H]1C(=O)N1CCC[C@H]1C(=O)N[C@@H](CO)C(N)=O)[C@@H](C)CC)C(=O)O` [compound 24]: the EC50 was determined as 1.9 pM at human GLP-1 receptor (Table 5, cAMP, HEK-293); 2 pM on human GLP-1 receptor (setting [1]); 9.4 pM at human glucagon receptor (Table 5, cAMP, HEK-293); 9.8 pM at human glucagon receptor (setting [1]). In addition, the solubility at 2 h in the data set “physchem” (pH 4.5) and in “physchem” (pH 7.4) was over 1000 µg/mL in each case. Further, the Cmax in “in vivo” is 6560 ng/mL. Also, in “in vivo”, the half-life was 3.7 h.
As to `CCCCCCCCCCCCCCCC(=O)N[C@@H](CCC(=O)NCCCC[C@H](NC(=O)[C@H](CCC(N)=O)NC(=O)[C@H](CCCCN)NC(=O)[C@H](CO)NC(=O)[C@H](CC(C)C)NC(=O)[C@H](CC(=O)O)NC(=O)[C@H](CO)NC(=O)[C@@H](NC(=O)[C@H](Cc1ccccc1)NC(=O)[C@@H](NC(=O)CNC(=O)[C@H](CCC(N)=O)NC(=O)C(C)(C)NC(=O)[C@@H](N)Cc1c[nH]cn1)[C@@H](C)O)[C@@H](C)O)C(=O)N[C@@H](CCC(=O)O)C(=O)N[C@@H](CO)C(=O)N[C@@H](CCCNC(=N)N)C(=O)N[C@@H](CCCNC(=N)N)C(=O)N[C@@H](C)C(=O)N[C@@H](CCC(N)=O)C(=O)N[C@@H](CC(=O)O)C(=O)N[C@@H](Cc1ccccc1)C(=O)N[C@H](C(=O)N[C@@H](CCC(=O)O)C(=O)N[C@@H](Cc1c[nH]c2ccccc12)C(=O)N[C@@H](CC(C)C)C(=O)N[C@@H](CCCCN)C(=O)N[C@@H](CC(N)=O)C(=O)NCC(=O)NCC(=O)N1CCC[C@H]1C(=O)N[C@@H](CO)C(=O)N[C@@H](CO)C(=O)NCC(=O)N[C@@H](C)C(=O)N1CCC[C@H]1C(=O)N1CCC[C@H]1C(=O)N1CCC[C@H]1C(=O)N[C@@H](CO)C(N)=O)[C@@H](C)CC)C(=O)O` [compound 117], the EC50 on human GLP-1 receptor (Table 5, cAMP, HEK-293) is 3.8 pM; at human glucagon receptor (Table 5, cAMP, HEK-293), 16.5 pM. The solubility at 2 h in “physchem” (pH 4.5) and in “physchem” (pH 7.4) was over 1000 µg/mL in each case. This compound also returned a Cmax in “in vivo” of 5000 ng/mL. This compound also gave a half-life in “in vivo” of 2.7 h.
For `CCCCCCCCCCCCCCCC(=O)N[C@@H](CCC(=O)NCCCC[C@H](NC(=O)[C@H](CCC(N)=O)NC(=O)[C@H](CCCCN)NC(=O)[C@H](CO)NC(=O)[C@H](CC(C)C)NC(=O)[C@H](CC(=O)O)NC(=O)[C@H](CO)NC(=O)[C@@H](NC(=O)[C@H](Cc1ccccc1)NC(=O)[C@@H](NC(=O)CNC(=O)[C@H](CCC(N)=O)NC(=O)[C@@H](CO)NC(=O)[C@@H](N)Cc1c[nH]cn1)[C@@H](C)O)[C@@H](C)O)C(=O)N[C@@H](CCC(=O)O)C(=O)N[C@@H](CO)C(=O)N[C@@H](CCCNC(=N)N)C(=O)N[C@@H](CCCNC(=N)N)C(=O)N[C@@H](C)C(=O)N[C@@H](CCC(N)=O)C(=O)N[C@@H](CC(=O)O)C(=O)N[C@@H](Cc1ccccc1)C(=O)N[C@H](C(=O)N[C@@H](CCC(=O)O)C(=O)N[C@@H](Cc1c[nH]c2ccccc12)C(=O)N[C@@H](CC(C)C)C(=O)N[C@@H](CCCCN)C(=O)N[C@@H](C)C(=O)NCC(=O)NCC(=O)N1CCC[C@H]1C(=O)N[C@@H](CO)C(=O)N[C@@H](CO)C(=O)NCC(=O)N[C@@H](C)C(=O)N1CCC[C@H]1C(=O)N1CCC[C@H]1C(=O)N1CCC[C@H]1C(=O)N[C@@H](CO)C(N)=O)[C@@H](C)CC)C(=O)O` [compound 4], the EC50 on human GLP-1 receptor (Table 5, cAMP, HEK-293) turned out to be 5 pM; on human GLP-1 receptor (setting [1]) it was 5 pM; at human glucagon receptor (Table 5, cAMP, HEK-293) it was 4 pM; on human glucagon receptor (setting [1]), 4 pM. Moreover, the solubility at 2 h was over 815 µg/mL in “physchem” (pH 4.5) and over 910 µg/mL in the data set “physchem” (pH 7.4). The compound also came in with a Cmax in the data set “in vivo” of 3590 ng/mL. For the same compound, the half-life in “in vivo” is 2.8 h.
In the case of `CCCCCCCCCCCCCCCC(=O)N[C@@H](CCC(=O)NCCCC[C@H](NC(=O)[C@H](CCC(N)=O)NC(=O)[C@H](CCCCN)NC(=O)[C@H](CO)NC(=O)[C@H](CC(C)C)NC(=O)[C@H](CC(=O)O)NC(=O)[C@H](CO)NC(=O)[C@@H](NC(=O)[C@H](Cc1ccccc1)NC(=O)[C@@H](NC(=O)CNC(=O)[C@H](CCC(N)=O)NC(=O)[C@@H](CO)NC(=O)[C@@H](N)Cc1c[nH]cn1)[C@@H](C)O)[C@@H](C)O)C(=O)N[C@@H](CCC(=O)O)C(=O)N[C@@H](CO)C(=O)N[C@@H](CCCNC(=N)N)C(=O)N[C@@H](C)C(=O)N[C@@H](C)C(=O)N[C@@H](CCC(N)=O)C(=O)N[C@@H](CC(=O)O)C(=O)N[C@@H](Cc1ccccc1)C(=O)N[C@H](C(=O)N[C@@H](CCC(=O)O)C(=O)N[C@@H](Cc1c[nH]c2ccccc12)C(=O)N[C@@H](CC(C)C)C(=O)N[C@@H](CCCCN)C(=O)N[C@@H](C)C(=O)NCC(=O)NCC(=O)N1CCC[C@H]1C(=O)N[C@@H](CO)C(=O)N[C@@H](CO)C(=O)NCC(=O)N[C@@H](C)C(=O)N1CCC[C@H]1C(=O)N1CCC[C@H]1C(=O)N1CCC[C@H]1C(=O)N[C@@H](CO)C(N)=O)[C@@H](C)CC)C(=O)O` [compound 44], the EC50 on human GLP-1 receptor (Table 5, cAMP, HEK-293) is 2.7 pM; on human glucagon receptor (Table 5, cAMP, HEK-293), 12 pM. Also, the solubility at 2 h in the data set “physchem” (pH 4.5) and in the data set “physchem” (pH 7.4) was over 1000 µg/mL in each case. The compound also showed a Cmax in “in vivo” of 2450 ng/mL. The half-life in “in vivo” is 3.4 h.
As for `CCCCCCCCCCCCCCCC(=O)N[C@@H](CCC(=O)NCCCC[C@H](NC(=O)[C@H](CCC(N)=O)NC(=O)[C@H](CCCCN)NC(=O)[C@H](CO)NC(=O)[C@H](CC(C)C)NC(=O)[C@H](CC(=O)O)NC(=O)[C@H](CO)NC(=O)[C@@H](NC(=O)[C@H](Cc1ccccc1)NC(=O)[C@@H](NC(=O)CNC(=O)[C@H](CCC(N)=O)NC(=O)[C@@H](CO)NC(=O)[C@@H](N)Cc1c[nH]cn1)[C@@H](C)O)[C@@H](C)O)C(=O)N[C@@H](CCC(=O)O)C(=O)N[C@@H](CO)C(=O)N[C@@H](CCCNC(=N)N)C(=O)N[C@@H](CCCNC(=N)N)C(=O)N[C@@H](C)C(=O)N[C@@H](CCC(N)=O)C(=O)N[C@@H](CC(=O)O)C(=O)N[C@@H](Cc1ccccc1)C(=O)N[C@H](C(=O)N[C@@H](CCC(=O)O)C(=O)N[C@@H](Cc1c[nH]c2ccccc12)C(=O)N[C@@H](CC(C)C)C(=O)N[C@@H](CCCCN)C(=O)N[C@@H](CCCNC(=N)N)C(=O)N[C@H](C)C(=O)NCC(=O)N1CCC[C@H]1C(=O)N[C@@H](CO)C(=O)N[C@@H](CO)C(=O)NCC(=O)N[C@@H](C)C(=O)N1CCC[C@H]1C(=O)N1CCC[C@H]1C(=O)N1CCC[C@H]1C(=O)N[C@@H](CO)C(N)=O)[C@@H](C)CC)C(=O)O` [compound 126], the EC50 at human GLP-1 receptor (Table 5, cAMP, HEK-293) was found to be 6.6 pM; on human glucagon receptor (Table 5, cAMP, HEK-293) it was 6.8 pM. The solubility at 2 h in “physchem” (pH 4.5) and in “physchem” (pH 7.4) was over 1000 µg/mL throughout. For the same compound, the maximum concentration (Cmax) in the data set “in vivo” is 3160 ng/mL. In addition, in the data set “in vivo”, the half-life was 1.5 h.
On to `CCCCCCCCCCCCCCCC(=O)N[C@@H](CCC(=O)NCCCC[C@H](NC(=O)[C@H](CCC(N)=O)NC(=O)[C@H](CCCCN)NC(=O)[C@H](CO)NC(=O)[C@H](CC(C)C)NC(=O)[C@H](CC(=O)O)NC(=O)[C@H](CO)NC(=O)[C@@H](NC(=O)[C@H](Cc1ccccc1)NC(=O)[C@@H](NC(=O)CNC(=O)[C@H](CCC(N)=O)NC(=O)C(C)(C)NC(=O)[C@@H](N)Cc1c[nH]cn1)[C@@H](C)O)[C@@H](C)O)C(=O)N[C@@H](CCC(=O)O)C(=O)N[C@@H](CO)C(=O)N[C@@H](CCC(N)=O)C(=O)N[C@@H](C)C(=O)N[C@@H](C)C(=O)N[C@@H](CCC(N)=O)C(=O)N[C@@H](CC(=O)O)C(=O)N[C@@H](Cc1ccccc1)C(=O)N[C@H](C(=O)N[C@@H](CCC(=O)O)C(=O)N[C@@H](Cc1c[nH]c2ccccc12)C(=O)N[C@@H](CC(C)C)C(=O)N[C@@H](CCCCN)C(=O)N[C@@H](C)C(=O)NCC(=O)NCC(=O)N1CCC[C@H]1C(=O)N[C@@H](CO)C(=O)N[C@@H](CO)C(=O)NCC(=O)N[C@@H](C)C(=O)N1CCC[C@H]1C(=O)N1CCC[C@H]1C(=O)N1CCC[C@H]1C(=O)N[C@@H](CO)C(N)=O)[C@@H](C)CC)C(=O)O` [compound 36], for which the EC50 on human GLP-1 receptor (Table 5, cAMP, HEK-293) was determined as 2.7 pM; on human glucagon receptor (Table 5, cAMP, HEK-293), 45.9 pM. Besides, the solubility at 2 h in “physchem” (pH 4.5) and in the data set “physchem” (pH 7.4) was over 1000 µg/mL in each case. In the data set “in vivo”, this compound yielded a Cmax of 5260 ng/mL. For the same compound, the half-life in the data set “in vivo” is 3.8 h.

Source of the values: patent publication US20140100156A1 (SANOFI, priority 2012, published 2014).
